Assay results as given in US6429204B1, “Method of inhibiting cancer growth” (University of Miami, priority 1997, dated 2002).

Experiments:
COLO 205 Cells = test: MTS cytotoxicity assay, COLO 205; details: two days
E-10 Cells = test: MTS cytotoxicity assay, E-10; details: two days

Measured: percent cytotoxicity

tetracycline pyrazole [CMT-5]
0%: COLO 205 Cells; 5 μM | COLO 205 Cells; 10 μM | COLO 205 Cells; 20 μM | COLO 205 Cells; 50 μM | COLO 205 Cells; 100 μM | E-10 Cells; 5 μM | E-10 Cells; 10 μM | E-10 Cells; 20 μM | E-10 Cells; 50 μM | E-10 Cells; 100 μM
